Test system: neonatal murine calvaria
Assay: Neonatal murine calvarial explant culture, bone and cartilage formation
Format: cell-based, mouse
Settings: 7 days after exposure
Procedure: Experimental Summary: Determine the effectiveness of varying does of Lovastatin scaffolds on cartilage formation using murine calvarial cultures. Four day old calvarial explant cultures were incubated with media containing scaffold material that releases 0, 0.4 or 8 μg/day. The extent of new cartilage is then quantitated by imaging analysis.
Experimental Design Four day old Swiss white pups were employed as they are generally a healthy mouse strain. Calvaria from 4-day old Swiss white mouse pup mice were dissected out and cut in half. The excised hemi-calvariae were placed on metal grids (at the surface) in 1 ml BGJ media with Fitton-Jackson modification BGJ media (Sigma) containing 0.1% BSA with glutamine. The bones are incubated at 37° C. in a 5% humidified incubator for a period of 24 h and then transferred to wells containing 1 ml media with test compounds and further incubated under the above conditions for 72-96 h. The bones are then removed, fixed in 10% buffered formalin for 24 h, decalcified in 14% EDTA overnight, embedded in paraffin and 4 μm-thick sections cut and stained with H&E.
Dosing. Lovastatin scaffold material (LPGA polymer scaffold impregnated with 2.5 mg lovastatin, 5 mg pieces, estimated release is 0.4 μg/24 h) applied for the first 48 h and then removed. Calvaria are removed at day 7 and day 14. […] Cartilage formation is assessed histologically.

B1: BMP: bone morphogenetic protein BMP2, 100 ng/ml, positive control in calvarial culture (protein, UniProt P12643 283-396, looked up)
Bone morphogenetic protein 2: QAKHKQRKRLKSSCKRHPLYVDFSDVGWNDWIVAPPGYHAFYCHGECPFPLADHLNSTNHAIVQTLVNSVNSKIPKACCVPTELSAISMLYLDENEKVVLKNYQDMVVEGCGCR
  Bone formation in cultures of neonatal murine calvaria: stimulates bone formation

Source: patent US20090181098A1, “Hmg-Co-a Reductase Inhibitor Enhancement of Bone and Cartilage” (OsteoScreen IP, LLC, priority 2006, published 2009)
